{"source": "patent US20210220331A1", "about": "“INHIBITORS OF IRES-MEDIATED PROTEIN SYNTHESIS” (The Regents of the University of California, priority 2016, published 2021)", "test_system": "LN229, LN18, LN428 and SF763 GBM lines", "assay": "Cell-cycle phase distribution and Annexin V apoptosis in four GBM lines", "format": "cell-based", "description": "Results are expressed as relative fold change in firefly (FF) luciferase activity and the mean and +S.D. are shown for three independent experiments. (B) Growth inhibition of GBM cell lines following 48 h culture in C11. Data represent mean±S.D. of three independent experiments. […] Control cell were treated with DMSO vehicle. Data are means±S.D., n=3. […] Percent apoptotic cells as determined via Annexin V staining are also shown below each graph. One of three experiments with similar results is shown."}
{"smiles": "CC(C)n1nc(-c2cc3cc(O)ccc3[nH]2)c2c(N)ncnc21", "note": "[PP242, 2-(4-Amino-1-isopropyl-1H-pyrazolo[3,4-d]pyrimidin-3-yl)-1H-indol-5-ol]", "values": [{"measurement": "G1 arrest", "result": "increased G1 arrest"}, {"measurement": "percentage of apoptotic cells", "result": "induced the percentage of apoptotic cells"}]}
